# From ChEMBL document CHEMBL1128174, “Enhanced D1 affinity in a series of piperazine ring substituted 1-piperazino-3-arylindans with potential atypical antipsychotic activity” (J Med Chem, 1995)
# The chains behind the UniProt entries cited, without tags or fusion partners. Where a name states a change or a piece, a line headed by the entry shows the natural chain unless it says otherwise.
# UniProt P15823: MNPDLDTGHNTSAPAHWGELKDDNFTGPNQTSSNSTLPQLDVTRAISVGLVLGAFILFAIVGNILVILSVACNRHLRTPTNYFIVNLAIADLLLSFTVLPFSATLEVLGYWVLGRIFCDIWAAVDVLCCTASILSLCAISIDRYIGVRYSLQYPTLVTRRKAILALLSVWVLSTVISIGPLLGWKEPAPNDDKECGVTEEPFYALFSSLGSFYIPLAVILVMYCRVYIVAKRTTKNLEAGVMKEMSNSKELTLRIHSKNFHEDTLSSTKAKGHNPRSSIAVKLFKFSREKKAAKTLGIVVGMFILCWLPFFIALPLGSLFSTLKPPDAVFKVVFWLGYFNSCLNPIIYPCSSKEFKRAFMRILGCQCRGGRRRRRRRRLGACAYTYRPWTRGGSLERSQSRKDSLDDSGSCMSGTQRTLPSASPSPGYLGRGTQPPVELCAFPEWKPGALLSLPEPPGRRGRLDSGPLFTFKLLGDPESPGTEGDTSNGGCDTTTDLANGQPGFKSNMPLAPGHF
# UniProt P23944: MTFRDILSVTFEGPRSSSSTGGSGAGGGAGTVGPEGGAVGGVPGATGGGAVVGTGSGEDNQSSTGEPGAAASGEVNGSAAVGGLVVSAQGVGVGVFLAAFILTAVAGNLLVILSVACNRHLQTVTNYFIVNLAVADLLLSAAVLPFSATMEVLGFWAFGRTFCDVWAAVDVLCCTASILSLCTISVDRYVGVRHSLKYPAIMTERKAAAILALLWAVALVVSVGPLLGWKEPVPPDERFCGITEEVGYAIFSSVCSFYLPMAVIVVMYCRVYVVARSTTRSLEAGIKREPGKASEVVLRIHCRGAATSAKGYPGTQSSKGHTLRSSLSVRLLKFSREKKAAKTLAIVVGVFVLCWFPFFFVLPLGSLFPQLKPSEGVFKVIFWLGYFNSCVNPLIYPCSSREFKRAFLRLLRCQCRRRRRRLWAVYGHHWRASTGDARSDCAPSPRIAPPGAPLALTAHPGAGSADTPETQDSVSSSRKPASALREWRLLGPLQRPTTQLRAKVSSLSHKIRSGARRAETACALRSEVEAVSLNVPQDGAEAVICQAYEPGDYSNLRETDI
# UniProt P43140: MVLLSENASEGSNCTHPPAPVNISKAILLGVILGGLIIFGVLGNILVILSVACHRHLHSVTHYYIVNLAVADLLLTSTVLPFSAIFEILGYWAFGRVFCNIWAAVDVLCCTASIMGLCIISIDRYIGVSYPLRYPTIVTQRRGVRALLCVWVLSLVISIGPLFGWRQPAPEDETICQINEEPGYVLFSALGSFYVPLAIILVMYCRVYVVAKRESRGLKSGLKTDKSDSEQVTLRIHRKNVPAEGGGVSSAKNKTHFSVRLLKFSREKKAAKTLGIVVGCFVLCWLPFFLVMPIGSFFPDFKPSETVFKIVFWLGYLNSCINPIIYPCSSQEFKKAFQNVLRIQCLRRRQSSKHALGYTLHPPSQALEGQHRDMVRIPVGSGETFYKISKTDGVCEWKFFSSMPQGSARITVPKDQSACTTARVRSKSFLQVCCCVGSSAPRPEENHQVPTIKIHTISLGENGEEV
# UniProt P61169, whole entry: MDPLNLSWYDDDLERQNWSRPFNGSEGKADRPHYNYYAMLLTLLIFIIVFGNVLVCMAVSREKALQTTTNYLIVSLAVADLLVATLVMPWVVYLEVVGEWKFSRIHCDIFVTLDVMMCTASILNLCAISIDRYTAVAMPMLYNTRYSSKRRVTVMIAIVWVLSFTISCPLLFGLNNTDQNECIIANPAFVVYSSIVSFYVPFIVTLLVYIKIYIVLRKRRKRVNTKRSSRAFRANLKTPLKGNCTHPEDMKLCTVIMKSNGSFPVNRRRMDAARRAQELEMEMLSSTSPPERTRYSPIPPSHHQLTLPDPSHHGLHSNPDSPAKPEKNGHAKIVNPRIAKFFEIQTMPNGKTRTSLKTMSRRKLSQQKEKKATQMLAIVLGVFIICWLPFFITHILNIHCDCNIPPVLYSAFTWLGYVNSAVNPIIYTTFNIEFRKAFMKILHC
# Target: Adrenergic receptor alpha-1 (Rattus norvegicus, UniProt P15823+P23944+P43140)
# Assay: Binding affinity against Alpha-1 adrenergic receptor, activity is expressed as IC50 values
# Type: protein assay
row,Compound,IC50
1,CN1CCN(C2CC(c3ccc(F)cc3)c3ccc(Cl)cc32)CC1(C)C (stereo in doubt; 28),4.9 nM
2,CN1CCN(C2CC(c3ccc(F)cc3)c3ccc(Cl)cc32)CC1(C)C (stereo in doubt; (-)-28),3.9 nM

# Target: D(2) dopamine receptor (Rattus norvegicus, UniProt P61169)
# Assay: Binding affinity against dopamine receptor D2
row,IC50,Compound
1,20 nM,"CN1CCN(C2CC(c3ccc(F)cc3)c3ccc(Cl)cc32)CC12CCCC2 (single isomer, unassigned; (+))"
2,3.1 nM,"CC(C)N1CCN(C2CC(c3ccc(F)cc3)c3ccc(Cl)cc32)CC1(C)C (single isomer, unassigned; (-))"
3,5 nM,CC(C)N1CCN(C2CC(c3ccc(F)cc3)c3ccc(Cl)cc32)CC1(C)C (stereo in doubt; 29)
4,10 nM,CN1CCN(C2CC(c3ccc(F)cc3)c3ccc(Cl)cc32)CC12CCCC2 (stereo in doubt; 34)
5,4.5 nM,CN1CCN(C2CC(c3ccc(F)cc3)c3ccc(Cl)cc32)CC12CCCC2 (stereo in doubt; (-)-34)
